Test system: SK-N-SH human neuroblastoma cells
Assay: Toxicity rescue: apoE4-enhanced cytotoxicity of oligomeric Aβ42
Details: Aβ42 10 µM, apoE4 1 µM pre-incubated 6 hrs with inhibitor (Aβ12-28 P 4 µM; CPO_Aβ17-21 P 1 or 4 µM), three days

## CC(=O)N[C@@H](C(=O)N[C@H](Cc1c[nH]cn1)C(=O)N[C@H](Cc1c[nH]cn1)C(=O)N[C@H](CCC(N)=O)C(=O)N[C@H](CCCCN)C(=O)N[C@H](CC(C)C)C(=O)N1CCC[C@@H]1C(=O)N[C@H](Cc1ccccc1)C(=O)N[C@H](Cc1ccccc1)C(=O)N[C@H](C)C(=O)N[C@H](CCC(=O)O)C(=O)N[C@H](CC(=O)O)C(=O)N[C@@H](C(=O)NCC(=O)N[C@H](CO)C(=O)N[C@H](CC(N)=O)C(=O)N[C@H](CCCCN)C(N)=O)C(C)C)C(C)C
  neutralization of apoE4-enhanced cytotoxicity of Aβ42: neutralized
